Experimental findings from ChEMBL document CHEMBL5579887, “Structure-Activity Relationship Studies of Substituted 2-Phenyl-1,2,4-triazine-3,5(2H,4H)-dione Analogues: Development of Potent eEF2K Degraders against Triple-Negative Breast Cancer” (J Med Chem, 2024) are described below.

≈ marks a conversion by molar mass, not a printed value.

The nature of series [1]: Kinetic solubility of the compound in PBS buffer at pH 7.4 measured by HPLC analysis.
The target of another series is Casein kinase I. In words: Inhibition of CK1 (unknown origin). The format is protein assay, Homo sapiens.
Series [2] can be described thus: In vivo antitumor activity against human MDA-MB-231 cells xenografted in female nude mouse assessed as tumor growth inhibition at 10 mg/kg, ip administered every other day relative to control. Particulars: MDA-MB-231, read-out: TGI.
The test system of series [3] is MDA-MB-231. In words: cells. Particulars: Homo sapiens, MDA-MB-231, 72 h, read-out: INH.
Series [4] relates to MDA-MB-231. In words: cells. Particulars: Homo sapiens, MDA-MB-231, 72 h, read-out: INH. This is another data set of the same source.
The test system of series [5] is MDA-MB-231. In words: cells. The note with it: Homo sapiens, MDA-MB-231, 48 h, read-out: Activity.
Series [6] relates to MDA-MB-231. In words: cells. Particulars: Homo sapiens, MDA-MB-231, 48 h, read-out: Activity. The source holds these as a separate data set.
For series [7], the system named is MDA-MB-231. Kind of series: cells. The note with it: Homo sapiens, MDA-MB-231, 48 h, read-out: Activity. The source holds these as a separate data set.
Series [8] relates to MDA-MB-231. Kind of series: cells. Particulars: Homo sapiens, MDA-MB-231, 48 h, read-out: Activity. The source holds these as a separate data set.
Series [9] concerns MDA-MB-231. Kind of series: cells. Particulars: Homo sapiens, MDA-MB-231, 48 h, read-out: Activity. The source holds these as a separate data set.
Series [10] has as its system HCC1806. Kind of series: cells. Particulars: Homo sapiens, HCC1806, 48 h, read-out: Activity.
Series [11] relates to HCC1806. In words: cells. Particulars: Homo sapiens, HCC1806, 48 h, read-out: Activity. This is another data set of the same source.
For series [12], the system named is HCC1806. Kind of series: cells. The note with it: Homo sapiens, HCC1806, 48 h, read-out: Activity. This is another data set of the same source.
For series [13], the system named is HCC1806. Kind of series: cells. The note with it: Homo sapiens, HCC1806, 48 h, read-out: Activity. This is another data set of the same source.
For series [14], the system named is HCC1806. Kind of series: cells. The note with it: Homo sapiens, HCC1806, 48 h, read-out: Activity. This is another data set of the same source.
Series [15] in a line: cells. Particulars: Homo sapiens, MDA-MB-231, 48 h.
Series [16] can be described thus: cells. Particulars: Homo sapiens, HCC1806, 48 h.
Series [17] in a line: in vivo. The note with it: female, BALB/c, mouse, ip, 5 mg/kg.
The nature of series [18]: in vivo. The note with it: female, BALB/c, mouse, po, 10 mg/kg.
Series [19] in a line: in vivo. Particulars: female, BALB/c, mouse, ip, 5 mg/kg. The source holds these as a separate data set.
A short description of series [20]: in vivo. The note with it: female, BALB/c, mouse, po, 10 mg/kg. The source holds these as a separate data set.
Series [21] is described as follows: in vivo. The note with it: female, BALB/c, mouse, iv, 5 mg/kg.
Series [22] in a line: in vivo. Particulars: female, BALB/c, mouse, ip, 5 mg/kg. The source holds these as a separate data set.
Series [23] in a line: in vivo. The note with it: female, BALB/c, mouse, po, 10 mg/kg. This is another data set of the same source.
The nature of a further series: animal or person. Particulars: Mus musculus, MDA-MB-231, read-out: TGI.

A word on the solubility (kinetic): it is solubility judged after dilution from a stock solution rather than from solid. As a reminder, the IC50 is the concentration at which inhibition is half-maximal. Read a high IC50 as lower potency. By half-life is commonly meant the time in which the quantity being followed falls by half. Low readings indicate rapid decline, high ones slow decline. In general, Cmax refers to the highest concentration seen after dosing. A word on the Vd: it is the apparent volume that relates the amount in the body to the concentration in plasma or blood. High values mean wide distribution into tissue, low ones little distribution into tissue. What is called bioavailability is the share of a dose that reaches the circulation, judged against a reference dose that is usually intravenous. Higher therefore signals much systemic uptake. For the compound `Cc1ccc(-n2nc(C(=O)N3CCCCC3)c(=O)n(Cc3ccccc3)c2=O)cc1C`, the solubility (kinetic) in [1] is 27 µM (≈ 11.3 µg/mL). Besides, the IC50 against Casein kinase I was > 10000 nM. Besides, the inhibition in vivo at 10 mg/kg in [2] was determined as 59.3%. Also, the inhibition at 20 µM in the series with MDA-MB-231 [3] came out at 90.5%. Moreover, in the series on MDA-MB-231 [4], the inhibition at 1 µM stood at 98.2%. The viability at 0.05 µM with MDA-MB-231 [5] was 87.9%; with HCC1806 [10], 94.4%. Moreover, the viability at 0.1 µM was 73% in the series with MDA-MB-231 [6] and 93% in the series on HCC1806 [11]. Moreover, the viability at 0.2 µM in the series on MDA-MB-231 [7] worked out at 51.7%; in the series on HCC1806 [12], 90.9%. Moreover, the results for the viability at 0.4 µM in the series on MDA-MB-231 [8] and with HCC1806 [13] were 33.5% and 89%, respectively. Also, the viability at 0.8 µM in the series on MDA-MB-231 [9] stood at 28.3%; with HCC1806 [14], 87.3%. Also, the DC50 in the series “cells [15]” was determined as 319 nM; in the series “cells [16]”, 857 nM. Moreover, the half-life at 24 h was 2.1 h in the series “in vivo [17]” and 3.4 h in “in vivo [18]”. In addition, the values for the Cmax at 24 h in the series “in vivo [19]” and in the series “in vivo [20]” were 194 ng/mL and 14.9 ng/mL, respectively. This compound gave a Vd at 24 h in “in vivo [21]” of 49.6 L/kg. Also, the bioavailability at 24 h in the series “in vivo [22]” turned out to be 33.4%; in the series “in vivo [23]”, 1.5%. Besides, in the series “animal or person”, the inhibition in vivo at 5 mg/kg came out at 44.8%.

Consider `Cc1ccc(-n2nc(C(=O)NCCN3CCCC3)c(=O)n(Cc3ccccc3)c2=O)cc1C`, for which the kinetic solubility in series [1] amounted to 238 µM (≈ 107 µg/mL). Further, in the series with MDA-MB-231 [3], the inhibition at 20 µM is 99.1%.
